# Antibody variant affinities, Ab-14 light chain, assay 1

Source: Engelhart et al. 2022 (doi:10.1038/s41597-022-01779-4), MIT Lincoln Laboratory and A-Alpha Bio; data file from the FLAb repository.

Antigen: PDVDLGDISGINAS, a 14-residue peptide of the SARS-CoV-2 spike HR2 region.

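Variants in AAYL50 differ from the parent at up to three CDR positions; double and triple changes were sampled at random. In AlphaSeq, yeast of one mating type display the scFv and yeast of the other type display the target. After mating in shaken culture at 30 °C for 16 h, diploids were selected and their barcode pairs sequenced. The ratio of observed to expected reads was calibrated, replicate by replicate, on BCL2-family standards whose Kd was known from biolayer interferometry. There are three technical replicates.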

Ab-14 is the parent antibody, in scFv form: VH, then three GGGGS repeats, then VL. The heavy chain is unchanged in all variants.
VH: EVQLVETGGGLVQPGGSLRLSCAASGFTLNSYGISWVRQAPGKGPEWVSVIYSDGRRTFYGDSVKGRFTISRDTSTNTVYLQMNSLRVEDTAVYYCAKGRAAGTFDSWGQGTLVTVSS
VL: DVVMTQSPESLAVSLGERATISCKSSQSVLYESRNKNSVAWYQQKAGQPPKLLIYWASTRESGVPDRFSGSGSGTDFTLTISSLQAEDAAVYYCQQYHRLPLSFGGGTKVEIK

The parent's light chain CDRs are KSSQSVLYESRNKNSVA, WASTRES, QQYHRLPLS; each variant's own CDRs replace them letter for letter.
Scale: log10 of Kd in nM, estimated from mating counts; low values are strong binders.
Averages over replicates are reported, and they cover detected replicates only.
An entry "n.d." has no value in the source: the pair was not observed among the diploids in that replicate. This suggests poor binding but is not conclusive.
The list is sorted by this average, lowest first, undetected variants last.
Parent in this assay: reference entry 0.65, copy in this library 1.68.
As a blank, each scFv also met three strains without target: over library AAYL50, 18% of these pairings were detected, typically at 4.19 and seldom below 2.99.

log10 Kd, replicates | mean, log10 nM | CDR-L1 | CDR-L2 | CDR-L3
1.00 1.18 1.06 | 1.08 | KLSQSVLYESRWKNSVA | WASTRES | QQEHRLPLS
1.08 1.19 1.32 | 1.20 | KIIQSVLYESRNKDSVA | WASTRES | QQYHRLPLS
1.23 1.31 1.35 | 1.30 | KSSLSVLYESRCKNSVA | WASTRMS | QQYHRLPLS
1.90 1.59 1.63 | 1.71 | KSSRSVLYESRNKNSVA | WASTRET | QQYHRLPLS
1.93 1.84 1.73 | 1.83 | TSSQSVLYESRNKNSVA | WASTRES | QQGHRLPLS
2.09 1.68 1.83 | 1.87 | KSSQSVLKESANKNSVA | WASTRES | QQHHRLPLS
1.93 2.13 1.68 | 1.92 | KSSQSVLYESMNKNSVA | WASTMES | QLYHRLPLS
1.59 2.64 2.04 | 2.09 | KSSQSVLYESRNLNSVA | WASTRES | QQYKGLPLS
2.32 2.32 2.55 | 2.40 | KSQQSVLYESRNKPSVA | WASTRES | QQYGRLPLS
n.d. 2.48 2.55 | 2.52 | VSSQSVLYEMRNKNSVA | WASTRES | QQYHRLPLI
2.55 n.d. n.d. | 2.55 | KSDQQVLYEKRNKNSVA | WASTRES | QQYHRLPLS
2.40 2.66 2.83 | 2.63 | KTSQSVLYESRNKASVA | WNSTRES | QQYHRLPLS
2.66 3.58 2.64 | 2.96 | KSSQSVLYESRNKNSVA | WASLRES | QQYHWLPWS
n.d. 3.07 n.d. | 3.07 | KSSQSVLYESRNKNSVA | WASTRTS | QQGHRDPLS
3.31 n.d. n.d. | 3.31 | KPSQSVLYESRNKNSVI | WASTRES | QQYVRLPLS
3.45 n.d. n.d. | 3.45 | KSSQSVLYESRNKNSVA | WASTRES | QQYCRWPLS
n.d. 3.55 n.d. | 3.55 | KSSQSVLYESRNCNSWA | WASTWES | QQYHRLPLS
n.d. n.d. 3.88 | 3.88 | LSSQSVLYESRNKNSVT | WASTRES | QLYHRLPLS
3.91 3.87 4.32 | 4.03 | MSSQSVLYESVNKNSVA | WASTRES | QIYHRLPLS
4.63 n.d. 3.52 | 4.08 | KSSQSVLYESRNKNSVA | WASTPES | QQEHRLMLS
n.d. 4.09 n.d. | 4.09 | KSSQSVRYESRNKNSVW | WASTRES | QSYHRLPLS
n.d. 4.16 n.d. | 4.16 | MSSQSVLYESRNKNSTA | WASTRES | QQYHRLPFS
4.85 n.d. n.d. | 4.85 | KSSQSVLYECRNKNSNA | WASTREA | QQYHRLPLS
5.31 4.60 5.64 | 5.18 | KSSQSVLYESRNKNPVA | HASTRES | QQYHRPPLS
n.d. n.d. n.d. | n.d. | KSSQSVLMVSRNKNGVA | WASTRES | QQYHRLPLS
n.d. n.d. n.d. | n.d. | KSSQSVLYESRNKNSVA | WDSTRES | QVYHRLCLS
n.d. n.d. n.d. | n.d. | KRSQSVLDESRNKNSVA | WASTQES | QQYHRLPLS
n.d. n.d. n.d. | n.d. | KSSQSVQYESRNKNSVA | WASTRSS | QSYHRLPLS
n.d. n.d. n.d. | n.d. | KSSQSVLYTSRNKNFVA | WASTDES | QQYHRLPLS
n.d. n.d. n.d. | n.d. | MSRQSVLYESRNKNSVA | WASTRES | QQYHRLPLC
n.d. n.d. n.d. | n.d. | KSSPSVLYWSRNKNSVA | WASTRES | WQYHRLPLS
n.d. n.d. n.d. | n.d. | KSSQSVLYESNNKNTVA | WASTRES | QQHHRLPLS
n.d. n.d. n.d. | n.d. | KSSQSILYESRNKIYVA | WASTRES | QQYHRLPLS
n.d. n.d. n.d. | n.d. | KSSQEVLRESRNKNSVA | WAGTRES | QQYHRLPLS

Repeated from above, the 3 best binders with a signal in all replicates:

CDR-L1	CDR-L2	CDR-L3	log10 Kd, replicates	mean, log10 nM
KLSQSVLYESRWKNSVA	WASTRES	QQEHRLPLS	1.00 1.18 1.06	1.08
KIIQSVLYESRNKDSVA	WASTRES	QQYHRLPLS	1.08 1.19 1.32	1.20
KSSLSVLYESRCKNSVA	WASTRMS	QQYHRLPLS	1.23 1.31 1.35	1.30